In PubChem BioAssay AID1906 (The Scripps Research Institute Molecular Screening Center, 2009):
The entries are a selection whose mix differs from that of the whole data set. Some of these compounds have results that are not shown, active ones among them. Active and inactive are the calls of the source.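 Rule for the calls: active = inhibition above the mean of all tested compounds plus 3 SD, set per screening campaign (cut at about 17% in these data); inactive = the rest.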

What follows are compounds tested on cathepsin L1 (Fasciola hepatica) (assay: CTSL1 protease inhibition, fluke enzyme – biochemical, QFRET, fluorogenic peptide substrate, counter-screen for PFM18AAP inhibitor project, primary screen (AID 1906;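 note: 0% = plate median of test compound wells and 100% = 1 µM Z-Phe-Ala-diazomethylketone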)). Details: recombinant F. hepatica cathepsin L1, Z-Leu-Arg-MCA fluorescence; at 5.96 µM; hits give high values.

Compound	inhibition
O=C(NCC1(N2CCCCC2)CCCCC1)c1cc([N+](=O)[O-])ccc1Cl	inactive: 5.62%
CN1[C@@H]2CC[C@H]1CC(OC(=O)C(O)(c1ccccc1)c1ccccc1)C2 (some centres undefined)	inactive: 1.45%
CC(C)N1C(=O)CC2(CCN(CCOC(=O)C(O)(c3ccccc3)c3ccccc3)CC2)C1=O	inactive: 0.04%
COc1cc(SC)ccc1C(=O)NCC1(N(C)C)CCCCC1	inactive: 6.77%
CCN(CC)CC(C)C(C)OC(=O)C(O)(c1ccccc1)c1ccccc1 (centres undefined)	inactive: 1.72%
Cc1ccc(C(=O)NCC2(N3CCCCC3)CCCCC2)cc1	inactive: 12.3%
CN(C)C1CCCC1OC(=O)C(O)(c1ccccc1)c1ccccc1 (centres undefined)	inactive: 5.45%
CN(C)c1ccc(C(=O)NCC2(N(C)C)CCCCC2)cc1	inactive: 0.46%
Cc1ccccc1C(=O)NCC1(N2CCCCC2)CCCCC1	active: 27.2%
O=C(NCC1(N2CCCCC2)CCCCC1)c1cc(F)c(F)cc1Cl	inactive: 13.8%
C=CCN1CCN(CCOC(=O)C(O)(c2ccccc2)c2ccccc2)CC1	inactive: -3%
O=C(NCC1(N2CCCCC2)CCCCC1)c1cccc(Br)c1	inactive: -0.46%
Cc1cc(C(=O)NCC2(N3CCCCC3)CCCCC2)ccc1[N+](=O)[O-]	inactive: 1.22%
CCN1CCCC(OC(=O)C2(O)c3ccccc3C=Cc3ccccc32)C1 (centres undefined)	inactive: 0.15%
COc1ccc(C(=O)NCC2(N(C)C)CCCCC2)cc1	inactive: 2.38%
CN(C)C1(CNC(=O)c2ccc(Br)cc2)CCCCC1	inactive: -3.67%
COc1cc(C(=O)NCC2(N(C)C)CCCCC2)c([N+](=O)[O-])cc1OC	inactive: 1.68%
COc1ccc(Cl)cc1C(=O)NCC1(N(C)C)CCCCC1	inactive: -1.1%
COc1cccc(C(=O)NCC2(N3CCCCC3)CCCCC2)c1	inactive: 4.7%
O=C(NCC1(N2CCCCC2)CCCCC1)c1cccc(Cl)c1	inactive: 1.49%
O=C(OC1CN2CCC1CC2)C(CO)(c1ccccc1)c1ccccc1 (centres undefined)	inactive: -0.38%
COc1ccc(Br)c(C(=O)NCC2(N3CCCCC3)CCCCC2)c1	active: 24.9%
CN(C)c1cccc(C(=O)NCC2(N(C)C)CCCCC2)c1	inactive: -1.59%
CC(C)Oc1ccc(C(=O)NCC2(N(C)C)CCCCC2)cc1	inactive: 5.12%
